The record followed here is publication PMC8802890, “Identification of U937^JAK3-M511I Acute Myeloid Leukemia Cells as a Sensitive Model to JAK3 Inhibitor” (Frontiers in Oncology, 2022).

Chains of the proteins cited; added tags and fusions are not shown. Lines headed by an entry give the natural chain unless they say otherwise; changes in a name come on top.
UniProt O60674: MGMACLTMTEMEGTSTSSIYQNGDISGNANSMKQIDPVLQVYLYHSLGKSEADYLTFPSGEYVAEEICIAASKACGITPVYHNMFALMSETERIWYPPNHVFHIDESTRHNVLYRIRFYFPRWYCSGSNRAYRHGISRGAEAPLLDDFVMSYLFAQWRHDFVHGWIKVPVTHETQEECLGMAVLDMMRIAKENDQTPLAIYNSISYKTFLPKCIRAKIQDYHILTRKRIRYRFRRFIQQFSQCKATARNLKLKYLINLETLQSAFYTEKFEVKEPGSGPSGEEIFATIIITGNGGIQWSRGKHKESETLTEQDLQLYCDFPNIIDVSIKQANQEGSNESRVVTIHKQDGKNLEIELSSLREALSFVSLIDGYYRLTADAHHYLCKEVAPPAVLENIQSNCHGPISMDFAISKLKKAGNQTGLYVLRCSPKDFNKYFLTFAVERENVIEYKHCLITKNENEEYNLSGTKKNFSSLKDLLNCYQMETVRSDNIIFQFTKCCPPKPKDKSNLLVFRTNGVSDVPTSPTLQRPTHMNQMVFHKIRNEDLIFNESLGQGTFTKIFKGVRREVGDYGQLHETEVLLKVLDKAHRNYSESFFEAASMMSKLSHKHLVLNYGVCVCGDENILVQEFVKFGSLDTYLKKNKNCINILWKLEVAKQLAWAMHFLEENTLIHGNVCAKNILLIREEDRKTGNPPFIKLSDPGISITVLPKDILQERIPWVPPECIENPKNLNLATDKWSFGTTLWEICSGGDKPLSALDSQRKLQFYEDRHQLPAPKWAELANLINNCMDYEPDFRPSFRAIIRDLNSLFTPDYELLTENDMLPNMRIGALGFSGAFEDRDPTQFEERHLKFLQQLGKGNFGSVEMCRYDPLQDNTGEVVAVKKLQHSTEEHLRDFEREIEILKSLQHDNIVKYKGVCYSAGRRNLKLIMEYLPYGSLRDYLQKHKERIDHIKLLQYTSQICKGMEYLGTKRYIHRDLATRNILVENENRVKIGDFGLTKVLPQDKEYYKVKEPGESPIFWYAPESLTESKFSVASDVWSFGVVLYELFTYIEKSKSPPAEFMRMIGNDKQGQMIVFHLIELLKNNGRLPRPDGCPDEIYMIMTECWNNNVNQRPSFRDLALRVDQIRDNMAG

This test has as its target T1, JAK2 (Homo sapiens, UniProt O60674).
T1 construct: purchased Invitrogen (Waltham, MA, USA)
Description: Z'-Lyte kinase assay, JAK2. It counts as biochemical.

Take `C=CC(=O)N1C[C@H](Nc2ncnc3[nH]ccc23)CC[C@@H]1C` [PF-06651600, ritlecitinib]: the “potency against JAK2 less than against JAK3” value is given as ~5,700 fold.
Broadly, the IC50 is the concentration that gives 50% inhibition. Higher therefore signals weaker potency in that assay. Turning to `CCS(=O)(=O)N1CC(CC#N)(n2cc(-c3ncnc4[nH]ccc34)cn2)C1` [Baricitinib], 8.6 ± 2.3 nM corresponded to half-maximal inhibition (IC50).
